From ChEMBL document CHEMBL4622967, “Selective Class I HDAC Inhibitors Based on Aryl Ketone Zinc Binding Induce HIV-1 Protein for Clearance” (ACS Med Chem Lett, 2020)

The chains behind the UniProt entries cited, without tags or fusion partners.
UniProt Q13547, whole entry: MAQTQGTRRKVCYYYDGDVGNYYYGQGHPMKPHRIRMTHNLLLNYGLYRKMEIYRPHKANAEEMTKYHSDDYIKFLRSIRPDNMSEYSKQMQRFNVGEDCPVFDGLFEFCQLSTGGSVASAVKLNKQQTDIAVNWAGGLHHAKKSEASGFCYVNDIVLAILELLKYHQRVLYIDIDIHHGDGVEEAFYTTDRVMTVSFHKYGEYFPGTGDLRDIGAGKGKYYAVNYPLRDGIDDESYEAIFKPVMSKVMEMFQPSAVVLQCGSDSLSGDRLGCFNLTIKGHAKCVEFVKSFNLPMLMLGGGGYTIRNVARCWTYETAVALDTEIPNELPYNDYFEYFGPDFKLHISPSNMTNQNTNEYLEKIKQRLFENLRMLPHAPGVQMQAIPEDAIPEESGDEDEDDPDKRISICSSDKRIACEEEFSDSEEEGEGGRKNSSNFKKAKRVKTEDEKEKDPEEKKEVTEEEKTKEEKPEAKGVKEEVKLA
UniProt Q92769, whole entry: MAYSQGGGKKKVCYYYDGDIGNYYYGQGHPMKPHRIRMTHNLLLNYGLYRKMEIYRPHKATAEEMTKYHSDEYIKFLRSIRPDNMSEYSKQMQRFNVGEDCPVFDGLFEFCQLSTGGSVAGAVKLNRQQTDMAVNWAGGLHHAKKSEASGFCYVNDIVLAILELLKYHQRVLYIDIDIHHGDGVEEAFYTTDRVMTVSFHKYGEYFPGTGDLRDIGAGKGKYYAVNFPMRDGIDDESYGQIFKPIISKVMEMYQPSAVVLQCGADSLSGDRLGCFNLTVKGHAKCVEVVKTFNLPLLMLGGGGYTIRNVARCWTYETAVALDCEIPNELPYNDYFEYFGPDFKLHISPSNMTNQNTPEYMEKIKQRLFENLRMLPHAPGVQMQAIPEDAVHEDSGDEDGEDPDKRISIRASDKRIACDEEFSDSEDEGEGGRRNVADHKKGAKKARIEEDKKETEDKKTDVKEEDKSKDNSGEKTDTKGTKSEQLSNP

Legend:
[1] = target: T1, Protein deacetylase HDAC6 (Homo sapiens, UniProt Q9UBN7)
T1 sequence (Q9UBN7 whole entry): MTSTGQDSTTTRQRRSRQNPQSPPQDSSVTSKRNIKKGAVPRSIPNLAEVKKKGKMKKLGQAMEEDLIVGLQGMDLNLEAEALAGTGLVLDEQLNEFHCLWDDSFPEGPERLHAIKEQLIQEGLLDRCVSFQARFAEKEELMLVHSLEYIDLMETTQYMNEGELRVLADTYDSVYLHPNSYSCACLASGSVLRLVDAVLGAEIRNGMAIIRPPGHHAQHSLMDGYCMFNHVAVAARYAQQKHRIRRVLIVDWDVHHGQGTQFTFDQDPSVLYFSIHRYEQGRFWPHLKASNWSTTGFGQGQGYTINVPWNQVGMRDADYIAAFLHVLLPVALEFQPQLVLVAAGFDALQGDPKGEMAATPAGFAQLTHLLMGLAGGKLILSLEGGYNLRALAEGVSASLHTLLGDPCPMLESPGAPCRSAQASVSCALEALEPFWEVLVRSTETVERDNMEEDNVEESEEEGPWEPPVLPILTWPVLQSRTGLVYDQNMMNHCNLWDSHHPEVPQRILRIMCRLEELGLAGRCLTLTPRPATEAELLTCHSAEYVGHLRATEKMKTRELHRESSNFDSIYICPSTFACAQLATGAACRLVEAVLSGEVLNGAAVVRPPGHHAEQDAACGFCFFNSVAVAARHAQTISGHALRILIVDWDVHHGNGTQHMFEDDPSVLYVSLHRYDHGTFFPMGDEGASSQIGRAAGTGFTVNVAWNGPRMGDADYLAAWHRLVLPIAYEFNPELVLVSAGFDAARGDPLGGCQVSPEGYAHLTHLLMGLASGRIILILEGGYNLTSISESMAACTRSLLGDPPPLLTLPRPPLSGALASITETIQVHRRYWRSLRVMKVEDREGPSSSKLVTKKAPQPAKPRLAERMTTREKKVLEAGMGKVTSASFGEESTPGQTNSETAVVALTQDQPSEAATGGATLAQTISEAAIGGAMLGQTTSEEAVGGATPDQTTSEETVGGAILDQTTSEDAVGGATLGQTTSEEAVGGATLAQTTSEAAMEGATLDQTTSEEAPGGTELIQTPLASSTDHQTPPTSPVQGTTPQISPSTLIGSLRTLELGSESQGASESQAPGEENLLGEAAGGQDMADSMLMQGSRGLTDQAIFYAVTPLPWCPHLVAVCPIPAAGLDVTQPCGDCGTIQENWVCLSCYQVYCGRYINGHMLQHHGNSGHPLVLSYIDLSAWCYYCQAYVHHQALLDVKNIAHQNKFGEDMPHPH

Histone deacetylase 8 = target: T2, Histone deacetylase 8 (Homo sapiens, UniProt Q9BY41)
T2 sequence (Q9BY41 whole entry): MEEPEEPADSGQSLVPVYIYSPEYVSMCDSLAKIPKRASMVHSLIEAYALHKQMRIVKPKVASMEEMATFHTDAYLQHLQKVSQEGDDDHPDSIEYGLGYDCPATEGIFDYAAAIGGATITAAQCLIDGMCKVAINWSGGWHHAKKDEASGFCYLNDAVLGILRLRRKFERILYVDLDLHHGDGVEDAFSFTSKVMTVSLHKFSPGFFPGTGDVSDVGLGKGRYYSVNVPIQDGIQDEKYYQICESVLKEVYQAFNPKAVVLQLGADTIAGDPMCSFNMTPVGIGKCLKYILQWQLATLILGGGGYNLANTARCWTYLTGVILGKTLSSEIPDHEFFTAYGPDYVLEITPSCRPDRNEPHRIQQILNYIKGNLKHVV

Histone deacetylase 1 = Histone deacetylase 1 (Homo sapiens, UniProt Q13547); assay: biochemical
Histone deacetylase 2 = Histone deacetylase 2 (Homo sapiens, UniProt Q92769); assay: biochemical

IC50 [1] [nM]	IC50 (Histone deacetylase 8) [nM]	IC50 (Histone deacetylase 1) [nM]	IC50 (Histone deacetylase 2) [nM]	Compound
> 900	32	0.2	0.82	CN1CC(C(=O)N[C@@H](CCCCCC(=O)c2ccon2)c2ncc(-c3ccccc3F)o2)C1
> 900	–	–	–	N[C@@H](CCCCCC(=O)c1ccon1)c1cc(-c2ccccc2F)on1
> 900	> 900	–	–	CN1CC(C(=O)N[C@@H](CCCCCC(=O)c2ccon2)c2nnc(-c3ccccc3F)o2)C1
–	–	–	61	N[C@@H](CCCCCC(=O)c1ccon1)c1cnn(-c2ccc(F)cc2)c1
–	–	25	81	N[C@@H](CCCCCC(=O)c1ccon1)c1cnn(-c2ccc(F)cc2)n1
